Our source for the Ki values is publication PMC5180416 (Journal of the American Chemical Society, 2012).

The target in this test is WDR5 (WD (Trp-Asp) repeat domain 5) (UniProt P61964 1-334). Description: fluorescence polarisation.

On to XRV (Deg (diethylglycine) at position 1; N-terminal acetyl; C-terminal amide) [Deg-RV], for which the affinity, expressed as Ki, was 4 nM.
